# Measurements: PMC2955234 (Investigational New Drugs, 2009)
# Test: Pharmacokinetics of sorafenib in plasma
# Format: in vivo
# Settings: human, oral, 400 mg, C max, Cohort 1, cycle 1, day 2, 400 mg sd (n = 6), geometric mean (% CV)
structure (smiles),measurement,value
CNC(=O)c1cc(Oc2ccc(NC(=O)Nc3ccc(Cl)c(C(F)(F)F)c3)cc2)ccn1 [Sorafenib],Cmax,2500 ng/mL
